Test results reported in patent publication US4681754A, “Counteracting cyclosporin organ toxicity” (Sandoz Ltd., priority 1984, dated 1987).

Test system: SH-rat
[1] = SH-rat blood serum, group 1 vs control group 3
[2] = SH-rat, 28 days, group 1 vs control group 3, group 2 vs group 1
[3] = SH-rat, measured 3-4 hours after Cyclosporine, group 1 vs control group 3, group 2 vs group 1

## Cyclosporine
[1]
  BUN: increase
  creatinine: without significant change
SH-rat urine, group 1 vs control group 3
  Na+ and K+ quotient: increase
SH-rat, 3rd week blood sample, group 1 vs control group 3, group 2 vs group 1
  PRA (Plasma Renin Activity): significant increase
[2]
  body weight: reduction of body weight
  water consumption: slight initial increase in water consumption followed by subsequent reduction during the course of the trial
[3]
  blood pressure: significant increase
  heart frequency: significant increase
Male SH-rats, 28 days, Cyclosporine 20 mg/kg/day p.o., 6 animals per group
  rats surviving to the end of the trial: 1 out of 6
